Reference: patent US9717725B2, “Use of opioid antagonists” (THE UNIVERSITY OF CHICAGO, priority 2005, dated 2017)
Read-outs that look alike come from different tables or passages of the source.

System: Human Microvascular Endothelial Cells (HMVEC)
Conditions: for endothelial cell migration (number of cells migrated per 10 high power fields): substance alone, 0.001 to 10.0 μM, 4 hours at 37° C.

C[C@@H](NC(=O)[C@@H](N)Cc1ccc(O)cc1)C(=O)NCC(=O)N(C)[C@@H](Cc1ccccc1)C(=O)NCCO [DAMGO, [D-Ala^2, N-McPhe^4, Gly^5-ol]-enkephalin] was tested, and the “endothelial cell migration (number of cells migrated per 10 high power fields)” value was “induced migration in a concentration dependent fashion”.

With CN1CC[C@]23c4c5ccc(O)c4O[C@H]2[C@@H](O)C=C[C@H]3[C@H]1C5 [morphine] the “concentration causing endothelial cell migration” value was 100 ng/mL.

For C[N@+]1(CC2CC2)CC[C@]23c4c5ccc(O)c4O[C@H]2C(=O)CC[C@@]3(O)[C@H]1C5 [methylnaltrexone, N-methylnaltrexone], the “dose attenuating morphine-based endothelial cell migration (as low as)” value was 10^−8 μM, the “attenuation of morphine-induced endothelial cell migration” value (morphine constant at 0.1 μM, antagonist 0.001 to 10.0 μM, listed as MNTX) was “attenuated” and the “endothelial cell migration (number of cells migrated per 10 high power fields)” value (listed as MNTX) was “had no effect on endothelial cell migration”.

CN1CC[C@]23c4c5ccc(O)c4O[C@H]2[C@@H](O[C@@H]2O[C@H](C(=O)O)[C@@H](O)[C@H](O)[C@H]2O)C=C[C@H]3[C@H]1C5 [M6G, morphine 6-glucuronide] was tested, and the “endothelial cell migration (number of cells migrated per 10 high power fields)” value was “exhibits a concentration-dependent effect on angiogenesis”.
